# According to PubChem BioAssay AID743398 (Broad Institute, 2014):
# The list shows a part of the results, in another mix than the full data. Active and inactive are the calls of the source. No stated cut-off is given here; in the data, active means activation above about 30% (passing the limit was not always enough); inconclusive means no clear call, values can overlap the other calls.
# Test: Wnt/beta-catenin pathway activators, primary screen, cell-based, plate reader, single point (AID 743398);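 further: 0% = neutral control wells and 100% = positive control wells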
# Settings: Wnt/beta-catenin reporter cell assay, activator, at 9.35 µM, stronger effect = higher value
row,Structure (SMILES),activation
1,CCCOP(=S)(Nc1nc(N)cc(=O)[nH]1)OCCC,inactive: -3.75%
2,Nc1cccc2c([As](=O)(O)O)cccc12,inactive: 1.38%
3,Cc1ccc(NCCc2c([N+](=O)[O-])cc([N+](=O)[O-])cc2[N+](=O)[O-])cc1,inactive: 9.62%
4,CCOP(=O)(Nc1cccc2ccccc12)OCC,inactive: 0.608%
5,O=[As](O)(O)c1cccnc1,inactive: -0.158%
6,COc1cc(C(=O)NCC2(N3CCOCC3)CCCCC2)cc(Cl)c1OC(C)C,inactive: -3.28%
7,CS(=O)(=O)c1ccc(Cl)c(NC(=O)COC(=O)C(O)(c2ccccc2)c2ccccc2)c1,inactive: -2.78%
8,O=C(OC1CN2CCC1CC2)c1ccc(Cl)cc1 (stereo not given),inactive: -0.386%
9,Cc1cccc(OCC(=O)OC2CN3CCC2CC3)c1 (stereo not given),inactive: 0.386%
10,O=[As](O)(c1cccc(O)c1)c1cccc(O)c1,inactive: -0.269%
11,COc1ccccc1CNC(=O)COC(=O)C(O)(c1ccccc1)c1ccccc1,inactive: -6.79%
12,CN(C(=O)Cc1ccc(Cl)c(Cl)c1)[C@@H]1CCCC[C@H]1N1CCCC1,inactive: -12%
13,CC(C)/C=N\N=C(\N)N[N+](=O)[O-],inactive: -0.199%
14,CN(C(=O)Cc1ccc(Cl)c(Cl)c1)C1CCCC[C@@H]1N1CCCC1 (stereo not given in full),inactive: -2.13%
15,CCOP(=O)(Nc1ccc(C)cn1)OCC,inactive: 23.8%
16,CN(CCCl)Cc1cc(Cl)c(NC2=NCCN2)c(Cl)c1,inactive: -0.819%
17,CCC1=CC2Cc3nc4ccc(Cl)cc4c(N)c3C(C1)C2 (stereo not given),inactive: -5.46%
18,O=P1(Nc2ccccn2)COc2ccccc2OC1,inactive: -2.56%
19,CCOP(=O)(NC(=NC(C)c1ccccc1)NC(C)c1ccccc1)OCC (stereo not given),inactive: -2.11%
20,O=P1(N(CCCl)CCCl)NCCC(C(F)(F)F)O1 (stereo not given),inactive: -3.85%
21,CC(C)(C)C(=O)NC(Sc1ncccn1)C(Cl)(Cl)Cl (stereo not given),inactive: -0.783%
22,O=P1(Nc2ncccn2)COc2ccccc2OC1,inactive: 7.61%
23,Cc1ccc(S(=O)(=O)N(CCCN)CCCc2c(C)nc(N)[nH]c2=O)cc1,inactive: -0.671%
24,O=[As](O)(c1cccs1)c1cccs1,inactive: 2.96%
25,NS(=O)(=O)c1cccc(NC(=O)COC(=O)C(O)(c2ccccc2)c2ccccc2)c1,inactive: -2.5%

row,Structure (SMILES),activation
1,Nc1cccc([As](=O)(O)c2ccccc2)c1,inactive: 2.17%
2,Cc1ccc(C(=O)OC2CN3CCC2CC3)cc1 (stereo not given),inactive: -0.378%
3,CC1CCC(C(C)C)C(OP(=O)(Nc2ccccn2)c2ccccc2)C1 (stereo not given),inactive: -4.94%
4,O=C(/C=C/c1ccccc1)OC1CN2CCC1CC2 (stereo not given),inactive: 1.15%
5,CCCC1OP(=O)(Nc2ccccc2)OCC1CC (stereo not given),inactive: -2.24%
6,CN(C)C1(CNC(=O)c2ccc(S(C)(=O)=O)cc2)CCCCC1,inactive: -0.462%
7,O=[N+]([O-])c1ncn(CCn2cnc([N+](=O)[O-])n2)n1,inactive: -6.21%
8,CC(=O)NC(SC(=S)N(C)C)C(Cl)(Cl)Cl (stereo not given),inactive: 10.3%
9,O=[As](O)(c1ccccc1)c1ccc(O)cc1,inactive: -1.22%
10,C/C(N)=N\P(=O)(OCc1ccccc1)OCc1ccccc1,inactive: -1.05%
11,C(Cc1nn[nH]n1)Cc1nn[nH]n1,inactive: -0.404%
12,Nc1ccc([As](=O)(O)c2ccc([N+](=O)[O-])cc2)cc1,inactive: -1.65%
13,COc1ccc(N)c([N+](=O)[O-])c1[N+](=O)[O-],inactive: -5.91%
14,Nc1ccc(CCCCOc2ccccc2)cc1,inactive: 1.61%
15,CN(C)C1(CNC(=O)c2ccc(Cl)c(S(N)(=O)=O)c2)CCCCC1,inactive: 0.2%
16,O=P(Nc1ccccn1)(c1ccc(Br)cc1)c1ccc(Br)cc1,inactive: -4.85%
17,O=P(Nc1nc2ccccc2s1)(c1ccccc1)c1ccccc1,inactive: -1.67%
18,C[C@H]1OP(=O)(Oc2ccccc2)[C@H](O)[C@H](O)[C@H]1N=[N+]=[N-] (stereo not given in full),inactive: 2.22%
19,CC(C)C(=O)NC(Sc1ccccc1)C(Cl)(Cl)Cl (stereo not given),inactive: 4.42%
20,CC(=O)c1ccc(N2CC2c2ccncc2)cc1 (stereo not given),inactive: 1.84%
21,N#C/C(=C\c1ccc(N(CCBr)CCBr)cc1)C(N)=O,inactive: 1.81%
22,COC(=O)C1(C)COP(=O)(NCc2ccccc2)OC1 (stereo not given),inactive: 0.888%
23,Cc1ccccc1CN(C)C(=O)COC(=O)C(O)(c1ccccc1)c1ccccc1,inactive: -2.14%
24,C[C@H]1OP(=O)(Oc2ccccc2)C[C@@H]2O[C@@H]21 (stereo not given in full),inactive: -1.77%
25,C[C@@H]1C=CCP(=O)(Oc2ccccc2)O1 (stereo not given in full),inactive: -0.738%
